Assay results from patent US11230717B2, “Plants having increased tolerance to herbicides” (BASF SE, priority 2013, dated 2022).

Chains of the proteins cited; added tags and fusions are not shown.
UniProt P93836, whole entry F381I: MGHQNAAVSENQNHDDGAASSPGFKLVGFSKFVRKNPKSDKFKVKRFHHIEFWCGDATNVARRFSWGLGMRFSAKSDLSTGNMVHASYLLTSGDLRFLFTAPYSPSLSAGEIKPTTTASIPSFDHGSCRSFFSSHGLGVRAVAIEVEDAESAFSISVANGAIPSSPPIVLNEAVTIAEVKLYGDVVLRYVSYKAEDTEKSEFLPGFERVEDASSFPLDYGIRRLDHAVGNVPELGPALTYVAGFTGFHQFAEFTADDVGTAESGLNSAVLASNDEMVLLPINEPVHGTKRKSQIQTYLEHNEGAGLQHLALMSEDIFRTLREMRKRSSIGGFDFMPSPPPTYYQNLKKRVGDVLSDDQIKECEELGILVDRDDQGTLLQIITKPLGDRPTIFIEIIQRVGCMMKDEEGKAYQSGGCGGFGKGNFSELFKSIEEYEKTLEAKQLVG
UniProt O48604, whole entry R146V/R147D/R148G/A164G: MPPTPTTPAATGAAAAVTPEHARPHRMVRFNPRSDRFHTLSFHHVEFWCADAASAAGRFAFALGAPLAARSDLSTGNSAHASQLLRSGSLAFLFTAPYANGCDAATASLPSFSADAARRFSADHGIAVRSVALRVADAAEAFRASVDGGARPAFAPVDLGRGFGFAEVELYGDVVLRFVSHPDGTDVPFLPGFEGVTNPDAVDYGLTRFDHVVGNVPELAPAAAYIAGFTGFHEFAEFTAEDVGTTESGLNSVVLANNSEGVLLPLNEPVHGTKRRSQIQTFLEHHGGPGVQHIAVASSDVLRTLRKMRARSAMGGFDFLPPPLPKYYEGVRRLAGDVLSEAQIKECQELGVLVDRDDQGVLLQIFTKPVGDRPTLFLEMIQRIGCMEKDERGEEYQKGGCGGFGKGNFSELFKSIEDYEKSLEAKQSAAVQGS

Experiments:
Arabidopsis HPPD = target: T1, Arabidopsis HPPD (Arabidopsis thaliana, UniProt P93836); test: HPPD activity assay (homogentisic acid by HPLC), in vitro characterization; type: biochemical
T1 construct: His6 (N); made in house; host or cells: E. coli BL21 (DE3)
Experimental: (§1) HPPD produces homogentisic acid and CO2 from 4-hydroxyphenylpyruvate (4-HPP) and O2. The activity assay for HPPD is based on the analysis of homogentisic acid by reversed phase HPLC.
(§2) The assay mixture can contain 150 mM potassium phosphate buffer pH 7.0, 50 mM L-ascorbic acid, 100 μM Catalase (Sigma-Aldrich), 1 μM FeSO4 and 0.2 units of purified HPPD enzyme in a total volume of 505 μl. 1 unit is defined as the amount of enzyme that is required to produce 1 nmol of HGA per minute at 20° C.
(§3) After a preincubation of 30 min the reaction is started by adding 4-HPP to a final concentration of 0.05 mM. The reaction is allowed to proceed for 45 min at room temperature. The reaction is stopped by the addition of 50 μl of 4.5 M phosphoric acid. The sample is filtered using a […] pore size PVDF filtration device.
(§4) 5 μl of the cleared sample is analyzed on an UPLC HSS T3 column (particle size 1.8 μm, dimensions 2,1×50 mm; Waters) by isocratic elution using 90% 20 mM NaH2PO4 pH 2.2, 10% methanol (v/v).
(§5) HGA is detected electrochemically at 750 mV (mode: DC; polarity: positive) and quantified by integrating peak areas (Empower software; Waters).
(§6) Inhibitors are dissolved in DMSO (dimethylsulfoxide) to a concentration of 0.5 mM. From this stock solution serial five-fold dilutions are prepared in DMSO, which are used in the assay. […] IC50 values are calculated using non-linear regression. […]

[1] = target: T2, Hordeum HPPD (SEQ ID NO:2) (Hordeum vulgare, UniProt O48604, A164G/R146V/R147D/R148G); test: HPPD activity assay, in vitro characterization; type: biochemical
T2 construct: subcloned into a modified pET24D (Novagen) expression vector resulting in N-terminally His-tagged expression constructs; His (N); made in house; host or cells: E. coli BL21 (DE3)
Experimental: as §1, §2, §3, §4, §5
Inhibitors are dissolved in DMSO (dimethylsulfoxide) to a concentration of 0.5 mM. From this stock solution serial five-fold dilutions are prepared in DMSO, which are used in the assay. […] IC50 values are calculated using non-linear regression.
Using methods which are described in the above examples or well known in the art, purified, recombinant wildtype HPPD enzymes are characterized with respect to their kinetic properties and sensitivity towards HPPD inhibiting herbicides. Apparent michaelis constants (Km) and maximal reaction velocities (Vmax) are calculated by non-linear regression with the software GraphPad Prism 5 (GraphPad Software, La Jolla, USA) using a substrate inhibition model. […] Weighted means (by standard error) of Km and IC50 values are calculated from at least three independent experiments. […] To assess the potential performance of a herbicide tolerance trait a tolerance index (TI) is calculated using the following formula: […]

Kordia HPPD = test: HPPD activity assay, in vitro characterization; type: biochemical; conditions: normalized to Hordeum SEQ ID NO:2
Experimental: as §1, §2, §3, §4, §5
(§7) Inhibitors are dissolved in DMSO (dimethylsulfoxide) to a concentration of 0.5 mM. From this stock solution serial five-fold dilutions are prepared in DMSO, which are used in the assay. The respective inhibitor solution accounts for 1% of the assay volume. Thus, final inhibitor concentrations range from […], respectively. Activities are normalized by setting the uninhibited enzyme activity to 100%. IC50 values are calculated using non-linear regression.
(§8) Using methods which are described in the above examples or well known in the art, purified, recombinant wildtype HPPD enzymes are characterized with respect to their kinetic properties and sensitivity towards HPPD inhibiting herbicides. Apparent michaelis constants (Km) and maximal reaction velocities (Vmax) are calculated by non-linear regression with the software GraphPad Prism 5 (GraphPad Software, La Jolla, USA) using a substrate inhibition model. Apparent kcat values are calculated from Vmax assuming 100% purity of the enzyme preparation. Weighted means (by standard error) of Km and IC50 values are calculated from at least three independent experiments. The Cheng-Prusoff equation for competitive inhibition (Cheng, Y. C.; Prusoff, W. H. Biochem Pharmacol 1973, 22, 3099-3108) is used to calculate dissociation constants (Ki). • Field performance of the HPPD enzyme, which is used as a herbicide tolerance trait, may depend not only on its lack of sensitivity towards HPPD inhibiting herbicides but also on its activity. To assess the potential performance of a herbicide tolerance trait a tolerance index (TI) is calculated using the following formula: […]
(§9) The reference SEQ ID NO:2 was included as a comparative control in a representative number of experiments and the values given in Table 12 are the average values from a number of experiments. The TI values given for various HPPD enzymes from different organisms are normalized to the value of the reference SEQ ID NO:2.

Lolium HPPD = test: HPPD activity assay, in vitro characterization; type: biochemical; conditions: normalized to Hordeum SEQ ID NO:2
Experimental: as §1, §2, §3, §4, §5, §7, §8, §9

Rhodococcus HPPD1 = test: HPPD activity assay, in vitro characterization; type: biochemical; conditions: normalized to Hordeum SEQ ID NO:2
Experimental: as §1, §2, §3, §4, §5, §7, §8, §9

Rhodococcus HPPD2 = test: HPPD activity assay, in vitro characterization; type: biochemical; conditions: normalized to Hordeum SEQ ID NO:2
Experimental: as §1, §2, §3, §4, §5, §7, §8, §9

[2] = tested on: Zea mays HPPD mutant Seq ID 67; test: HPPD activity assay, in vitro characterization; type: biochemical; conditions: normalized to Hordeum SEQ ID NO:2
Experimental: as §1, §2, §3, §4, §5, §7, §8, §9

[3] = tested on: Zea mays HPPD mutant Seq ID 69; test: HPPD activity assay, in vitro characterization; type: biochemical; conditions: normalized to Hordeum SEQ ID NO:2
Experimental: as §1, §2, §3, §4, §5, §7, §8, §9

Picrophilus HPPD = test: HPPD activity assay, in vitro characterization; type: biochemical, Picrophilus torridus; conditions: normalized to Hordeum SEQ ID NO:2
Experimental: as §1, §2, §3, §4, §5, §6

Avena HPPD = test: HPPD activity assay, in vitro characterization; type: biochemical, Avena sativa; conditions: normalized to Hordeum SEQ ID NO:2
Experimental: as §1, §2, §3, §4, §5, §6

[4] = target: T3, Arabidopsis HPPD variant F381I (Arabidopsis thaliana, UniProt P93836, F381I); test: HPPD activity assay, in vitro characterization of HPPD mutants; type: biochemical; conditions: normalized to wildtype
T3 construct: His6 (N); made in house; host or cells: E. coli BL21 (DE3)
Experimental: as §1, §2, §3, §4, §5
Inhibitors are dissolved in DMSO (dimethylsulfoxide) to a concentration of 0.5 mM. From this stock solution serial five-fold dilutions are prepared in DMSO, which are used in the assay. The respective inhibitor solution accounts for 1% of the assay volume. […] Activities are normalized by setting the uninhibited enzyme activity to 100%. IC50 values are calculated using non-linear regression.
Purified, mutant HPPD enzymes are obtained by the methods described above. Dose response and kinetic measurements are carried out using the described HPPD activity assay. Apparent michaelis constants (Km) and maximal reaction velocities (Vmax) are calculated by non-linear regression with the software GraphPad Prism 5 (GraphPad Software, La Jolla, USA) using a substrate inhibition model. […] Weighted means (by standard error) of Km and IC50 values are calculated from at least three independent experiments.
Field performance of the optimized HPPD enzyme, which is used as a herbicide tolerance trait may depend not only on its lack of sensitivity towards HPPD inhibiting herbicides but also on its activity. To assess the potential performance of a herbicide tolerance trait a tolerance index (TI) is calculated using the following formula: […]

CSc1c(Cl)cc(F)c(C(=O)Nc2nnnn2C)c1Cl [Inhibitor 2, 2,4-dichloro-6-fluoro-3-methylsulfanyl-N-(1-methyltetrazol-5-yl)benzamide]
Normalized tolerance index (TI) (Arabidopsis HPPD; Arabidopsis HPPD Wildtype (SEQ ID: 53), reference): 1
TI (tolerance index) (Arabidopsis HPPD; Arabidopsis HPPD, not normalized): 19.5E−3
Normalized tolerance index (TI) ([1]; Hordeum HPPD Wild-type (SEQ ID NO: 2), reference of Table 16): 1
Normalized tolerance index (TI) ([1]; Hordeum HPPD, reference, normalized to SEQ ID NO:2): 1
TI (tolerance index) ([1]; Hordeum HPPD, not normalized): 5E−3
Normalized tolerance index (TI) (Kordia HPPD): 0.4
Normalized tolerance index (TI) (Lolium HPPD): 3.0
Normalized tolerance index (TI) (Rhodococcus HPPD1): 0.4
Normalized tolerance index (TI) (Rhodococcus HPPD2): 0.4
Normalized tolerance index (TI) [2]: 12.3
Normalized tolerance index (TI) [3]: 3
Normalized tolerance index (TI) (Picrophilus HPPD): 0.4
Normalized tolerance index (TI) (Avena HPPD): 3.8
Normalized tolerance index (TI) [4]: 0.6
